Earlier results on one substance are cited in patent US20160367500A1 (FERTILIFY INC., priority 2013, published 2016).

For the series the following is noted: Health Canada suggested daily intake levels for females aged 19-50.

On to vitamin E, for which the “Tolerable upper intake level” value is 1,000 mg.
